Screening results from PubChem.
Hits are enriched below; roughly 1.3% of the tested compounds scored in any of these assays.
UUG fidelity – modulators of yeast start codon fidelity, primary screen, whole organism, S. cerevisiae, single point, plate reader | AID 602363, 2012 | S. cerevisiae UUG-firefly luciferase reporter, luminescence/redox ratio | activity score, % at 18.7 µM | hit rate 0.13% among 350,000;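 active = replicate mean at a twofold rise or more, about +100% in these data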;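 also: firefly luciferase made from a UUG start codon reports start codon fidelity; reporter light over untreated wells divided by growth signal over untreated wells; some hits fall short of that in this replicate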
E-selectin induc – E-selectin induction in HUVECs, primary screen, imaging, HUVEC, immunofluorescence imaging, single point; P16581; AID 686992, 2013; normalized: neutral wells 0, TNF-alpha wells 100; activation, % at 7.58 µM; actives 0.37% (n = 260,000);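 active means mean E-selectin-positive cell signal at least 10% of the positive control, reached in at least 60% of replicates, without over 20% cell loss; inconclusive means no rule given, readout overlaps actives, possibly toxicity-flagged; inactive means the rest, including those meeting only one limit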
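Assay system: HUVEC, human umbilical vein endothelial cells / Amount: 3,000 HUVEC/well / Controls: TNF-alpha positive control, DMSO neutral control / Compound dosing: single concentration / Medium: EGM-2 over gelatin coat / Evaluation: percent E-selectin-positive cells / Signal: immunofluorescence imaging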
ARNT-TACC3 inh – disruptors of ARNT/TACC3 protein interaction, primary screen, biochemical, AlphaScreen, single concentration | actives 0.66% (n = 390,000) | Transforming acidic coiled-coil-containing protein 3 (Homo sapiens), Q9Y6A5 | inhibition, % at 9.99 µM | AlphaScreen His-ARNT PAS-B/GST-TACC3 binding, luminescence; TACC3 fragment carries E629A point mutation;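 active means mean inhibition of replicates at least 50% and at least half of replicates each reaching 50%; inconclusive means half or more replicates reach 50% but mean below 50%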;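 further: 0% = complete ARNT plus TACC3 wells and 100% = ARNT alone without TACC3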
AF4-AF9 inh – inhibitors of AF4 peptide binding to AF9, primary screen, biochemical, AlphaScreen, biotin-AF4 peptide, FLAG-AF9, single point | Protein AF-9 (Homo sapiens), P42568 | inhibition, % at 10 µM | actives 0.47% (n = 350,000) | AID 651704, 2012;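 active means every replicate reaching a set inhibition limit, whatever the replicate mean, cut at about 25% in these data; inconclusive means mean inhibition reaches that limit but some replicates miss it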;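 further: 0% = plate neutral control median and 100% = total signal loss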
ERAP1 inh – human ERAP1 aminopeptidase inhibitors, primary screen, biochemical, single point, plate reader | Endoplasmic reticulum aminopeptidase 1 (Homo sapiens), Q9NZ08 | actives 0.15% (n = 340,000) | AID 652197, 2013 | recombinant ERAP1, Leu-AMC fluorescence, 60 min | inhibition, % at 10.7 µM;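 active means mean replicate inhibition of at least 30%, or all replicates individually reaching that 30% level; inactive means mean below 30% and not every replicate reaching it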;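 further: 0% = neutral control wells and 100% = L-leucinethiol positive control wells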
S100A4 inh HTS – inhibitors of S100A4-myosin IIA peptide binding, primary screen, biochemical, fluorescence polarization, TAMRA-MyoIIA peptide; Protein S100-A4 (Homo sapiens), P26447; inhibition, % at 10.7 µM; actives 0.14% (n = 360,000);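 active means mean inhibition of at least 70% across replicates, with every replicate also reaching that level; inconclusive means mean inhibition reaches 70% but some replicates fall short; inactive means mean inhibition below 70%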
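System – human S100A4 monomer protein, biochemical binding assay · Buffer or medium – Calcium-containing HEPES buffer, pH 7.2 · Timing – 5 min between mix addition and reading · Also added – TAMRA-labelled myosin IIA heavy-chain peptide probe, 5 nM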
The depositor's hits bear a star; ? = inconclusive; nt = no result given; + = active, no number.

Sequences of proteins named here, by UniProt entry; tags and fusion partners are left off.
Protein AF-9 (Homo sapiens), P42568, UniProt P42568, whole entry, looked up: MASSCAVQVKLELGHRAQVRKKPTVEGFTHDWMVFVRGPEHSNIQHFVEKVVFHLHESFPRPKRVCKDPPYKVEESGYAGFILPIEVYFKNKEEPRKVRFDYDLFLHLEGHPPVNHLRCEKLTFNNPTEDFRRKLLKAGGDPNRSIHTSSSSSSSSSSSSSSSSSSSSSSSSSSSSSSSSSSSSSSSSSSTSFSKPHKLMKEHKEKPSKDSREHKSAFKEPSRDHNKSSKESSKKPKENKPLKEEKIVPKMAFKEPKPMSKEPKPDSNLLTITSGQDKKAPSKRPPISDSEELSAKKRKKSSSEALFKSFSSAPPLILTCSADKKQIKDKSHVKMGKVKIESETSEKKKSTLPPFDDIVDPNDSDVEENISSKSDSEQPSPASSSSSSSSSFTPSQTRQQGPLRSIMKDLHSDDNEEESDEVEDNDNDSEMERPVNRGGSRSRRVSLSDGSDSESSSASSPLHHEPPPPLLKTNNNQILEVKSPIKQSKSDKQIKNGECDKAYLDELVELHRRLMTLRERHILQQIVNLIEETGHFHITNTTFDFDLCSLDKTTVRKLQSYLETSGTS

nr	structure	UUG fidelity	E-selectin induc	ARNT-TACC3 inh
1	COc1ccc([C@H]2CC(=O)C=C(c3ccc(CNC(=O)OC(C)(C)C)cc3)C2)cc1	-24.8	29.5*	9.5
2	Cc1noc(C)c1S(=O)(=O)N(C)C[C@@H]1Oc2ccc(NC(=O)NC3CCCCC3)cc2CC(=O)N([C@H](C)CO)C[C@H]1C	10.1	-1.6	11.5
3	CC(C)CCNCC(O)CON=C1c2ccccc2-c2ccccc21 (stereo not drawn)	nt	0.0	10.3
4	Cc1ccccc1N1CCN(C2=NC(=O)/C(=C/c3cn[nH]c3-c3ccccc3)S2)CC1	nt	nt	20.7*
5	Cc1ccccc1-c1ccc(/C=C2/SC(N3CCOCC3)=NC2=O)o1	-8.1	0.3	0.5
6	COc1cc(NC(=O)COC(=O)CO/N=C(\C)c2ccc3c(c2)OCO3)cc(OC)c1OC	nt	180.4*	-10.1
7	COc1cc(NC(=O)COC(=O)CO/N=C(\C)c2ccc3c(c2)OCO3)cc(OC)c1	-6.5	-2.9	10.5
8	Cc1nnc(SCC(=O)NNC(=O)CC#N)[nH]c1=O	nt	1.3	47.7*
9	O=C(NCc1ccc(F)cc1)C1CCCN(S(=O)(=O)c2ccc(-n3cnnn3)cc2)C1 (stereo not drawn)	14.3	nt	-1.3
10	O=C(NCc1ccccc1)C1CCCN(S(=O)(=O)c2ccc(-n3cnnn3)cc2)C1 (stereo not drawn)	-7.5	31.3*	7.3

nr	AF4-AF9 inh	ERAP1 inh	S100A4 inh HTS
1	nt	0.7	-1.3
2	-1.7	-0.9	7.1
3	27.2*	-1.3	-0.3
4	-7.5	-3.2	-0.2
5	nt	8.5	0.8
6	-0.7	2.6	-5.3
7	-1.5	6.4	-6.2
8	-7.5	-3.0	3.9
9	-3.1	-3.4	8.1
10	-0.4	-2.9	-9.3

The listing continues:
nr	structure	UUG fidelity	E-selectin induc	ARNT-TACC3 inh
11	CCCC(=O)N1CC2(C1)CN(S(C)(=O)=O)[C@H](CO)c1c2c2ccc(OC)cc2n1C	nt	-0.4	nt
12	Cc1noc(C)c1CCC(=O)NC1CCCN(Cc2ccc(Cl)cc2)C1 (stereo not drawn)	-2.3	0.1	46.4*
13	Cc1noc(C)c1CCC(=O)NC1CCCN(Cc2ccc(CC(C)C)cc2)C1 (stereo not drawn)	3.8	nt	-4.0
14	Cc1noc(C)c1S(=O)(=O)Nc1ccc2c(c1)C(=O)N([C@@H](C)CO)C[C@H](C)[C@H](CN(C)S(=O)(=O)c1ccc(Cl)cc1)O2	-4.3	0.9	nt
15	CO[C@H]1CN(C)C(=O)c2cc(NC(=O)c3ccccc3F)ccc2OC[C@@H](C)N(C)C[C@@H]1C	-12.9	0.3	-6.8
16	OC(CSc1ccc(F)cc1)CN1CCN(c2ccccc2)CC1 (stereo not drawn)	nt	56.1*	-0.1
17	C[C@@H]1CCCCO[C@@H](CN(C)C(=O)CCC(F)(F)F)[C@H](C)CN([C@H](C)CO)C(=O)c2cc(NC(=O)c3ccncc3)ccc2O1	nt	-0.1	nt
18	COc1cc(NCCCNC(C)C)c2nccc(C)c2c1	-7.0	nt	76.8*
19	Cc1ccc(S(=O)(=O)Nc2ccc3c(c2)C(=O)N([C@H](C)CO)C[C@@H](C)[C@H](CN(C)C(=O)Nc2ccccc2)OCCCC[C@@H](C)O3)cc1	-6.6	-0.3	3.5
20	COc1ccccc1OCC(=O)NC1CCCc2ccccc21 (stereo not drawn)	1.3	0.2	-3.4

nr	AF4-AF9 inh	ERAP1 inh	S100A4 inh HTS
11	1.6	6.9	-0.2
12	1.4	-6.4	-1.6
13	-3.5	-4.1	-25.3
14	-15.9	2.8	-82.6
15	-2.6	-3.1	61.4
16	1.0	-0.5	-2.3
17	-2.5	0.2	-8.0
18	9.8	6.4	12.8
19	-0.7	-2.2	-1.5
20	-6.8	-4.5	-1.5

Reprinted from the part before: 4 compounds; new compounds follow.
nr	structure	UUG fidelity	E-selectin induc	ARNT-TACC3 inh
17	C[C@@H]1CCCCO[C@@H](CN(C)C(=O)CCC(F)(F)F)[C@H](C)CN([C@H](C)CO)C(=O)c2cc(NC(=O)c3ccncc3)ccc2O1	nt	-0.1	nt
18	COc1cc(NCCCNC(C)C)c2nccc(C)c2c1	-7.0	nt	76.8*
19	Cc1ccc(S(=O)(=O)Nc2ccc3c(c2)C(=O)N([C@H](C)CO)C[C@@H](C)[C@H](CN(C)C(=O)Nc2ccccc2)OCCCC[C@@H](C)O3)cc1	-6.6	-0.3	3.5
20	COc1ccccc1OCC(=O)NC1CCCc2ccccc21 (stereo not drawn)	1.3	0.2	-3.4
21	COc1ccc(CCC(=O)NC2CCCc3ccccc32)cc1OC (stereo not drawn)	-8.4	nt	-1.1
22	NC[C@@H]1O[C@H](C23CC4CC(CC(C4)C2)C3)Cc2c1ccc(O)c2O	-6.0	-0.3	16.1
23	Clc1cccc(-c2ccc(CNCc3ccccn3)o2)c1	-32.5	nt	74.1*
24	Brc1ccc(-c2ccc(CNCc3ccccn3)o2)cc1	-17.9	0.0	3.4
25	COc1ccc(C2C3=C(CCCC3=O)N(CC(=O)O)C3=C2C(=O)CCC3)cc1Cl	-0.4	nt	7.0
26	COc1ccc(C2C3=C(CCCC3=O)N(CC(=O)O)C3=C2C(=O)CCC3)cc1Br	-10.8	-0.2	nt
27	C=CC(=O)Nc1cccc(Oc2nc(Nc3ccc(N4CCN(C)CC4)cc3OC)ncc2Cl)c1	nt	0.8	nt
28	CN1C(=O)c2cc(NC(=O)C3CCCC3)ccc2OC[C@@H]2O[C@@H](CC(=O)NCC(F)(F)F)CC[C@H]21	8.5	0.0	-2.8
29	COc1cccc2c1C(=O)c1c(O)c3c(c(O)c1C2=O)CC(O)(C(C)=O)CC3OC1CC(O)C(O)C(C)O1 (stereo not drawn)	nt	1.5	18.1
30	COc1cccc2c1C(=O)c1c(O)c3c(c(O)c1C2=O)C[C@](O)(C(C)=O)C[C@H]3O[C@@H]1C[C@@H](N)[C@@H](O)[C@@H](C)O1	-28.3	146.0*	16.4

nr	AF4-AF9 inh	ERAP1 inh	S100A4 inh HTS
17	-2.5	0.2	-8.0
18	9.8	6.4	12.8
19	-0.7	-2.2	-1.5
20	-6.8	-4.5	-1.5
21	1.4	31.7*	-1.4
22	46.6*	31.3*	-6.9
23	9.5	-1.5	-6.3
24	11.0	6.4	-10.6
25	-8.1	30.9*	-3.7
26	-4.3	23.9	-2.1
27	63.0*	nt	-5.5
28	-1.2	-3.5	6.3
29	8.9	31.8*	+
30	?	19.5	+

New compounds follow.
nr	structure	UUG fidelity	E-selectin induc	ARNT-TACC3 inh
31	CCCCC(=O)OCC(=O)C1(O)Cc2c(O)c3c(c(O)c2C(OC2CC(NC(=O)C(F)(F)F)C(O)C(C)O2)C1)C(=O)c1c(OC)cccc1C3=O (stereo not drawn)	nt	-0.1	-3.9
32	COc1cccc2c1C(=N)c1c(O)c3c(c(O)c1C2=O)CC(O)(C(C)=O)CC3OC1CC(N)C(O)C(C)O1 (stereo not drawn)	nt	nt	49.0*
33	O=C(C[C@@H]1CC[C@@H](NC(=O)Cc2ccccn2)[C@H](CO)O1)NCCCN1CCOCC1	-21.1	0.8	-0.6
34	COc1ccc(NC(=O)N(C)C[C@@H]2Oc3ccc(NC(=O)Nc4ccc(C(F)(F)F)cc4)cc3CC(=O)N([C@@H](C)CO)C[C@H]2C)cc1	-14.1	0.6	-7.2
35	C[C@H](CO)N1C[C@H](C)[C@H](CN(C)C)Oc2c(NS(C)(=O)=O)cccc2C1=O	4.8	-0.9	20.3
36	C[C@@H]1CN([C@H](C)CO)C(=O)c2cccc(NS(C)(=O)=O)c2O[C@@H]1CN(C)CC1CC1	10.4	-4.4	nt
37	C[C@H](CO)N1C[C@H](C)[C@H](CN(C)S(C)(=O)=O)Oc2c(NS(C)(=O)=O)cccc2C1=O	-13.8	64.0*	-3.5

nr	AF4-AF9 inh	ERAP1 inh	S100A4 inh HTS
31	12.7	-2.9	34.4
32	nt	nt	nt
33	-2.1	-2.6	57.8
34	4.9	1.9	-6.2
35	-2.0	-2.4	10.5
36	-3.6	1.3	125.8*
37	-2.7	-0.5	7.2
